Experimental data published in PubChem BioAssay AID902 (National Center for Advancing Translational Sciences (NCATS), 2007).
This is a selection; strong and weak results do not stand in their true shares. Inconclusive results are not listed. The source made the active and inactive calls. Calls come from the whole dose curve; as a rule, active = well fitted cell-killing curve with a large enough effect; inconclusive = small, poorly fitted or top-dose-only effect; inactive = no such curve, though single readings can be large or run the other way.

Test: qHTS Screen for Compounds that Selectively Target Cancer Cells with p53 Mutations: Cytotoxicity of p53ts Cells at the Nonpermissive Temperature; note: nearly all actives have a fitted effect of over 55% in size
Details: H1299-p53A138V viability at 39C, ATP luminescence, 24 h
Potency is the fitted concentration of half-maximal effect.

With `C=CC(=O)OCCOCCOCCOCCOC(=O)C=C` as the compound, how does the Potency read?
The Potency was active: 31.6 µM.

For `CNCCCCCCCCSc1nc(C(C)C)ccc1C(=O)c1cccs1`, which Potency is on record?
Its Potency is active: 31.6 µM.
